The text below walks through data of ChEMBL document CHEMBL1123007, “New antiarrhythmic agents. N-aryl-8-pyrrolizidinealkanamides” (J Med Chem, 1985).

A short description of the experiment: Ratio of LD50 to ED50 evaluated for its antiarrhythmic potency. Format: functional, Heart.

`Cc1cccc(C)c1NC(=O)CC12CCCN1CCC2` [PILSICAINIDE]: the Ratio was determined as 17.08.
